This passage reports Kp results from ChEMBL document CHEMBL4321881 (J Med Chem, 2020).

The nature of series [1]: in vivo. The conditions noted are these: CD1, mouse, brain/plasma, po, 5 mg/kg.
Series [2] is described as follows: in vivo. The conditions noted are these: CD1, mouse, brain/plasma, po, 100 mg/kg.

For orientation: Kp means tissue or fluid exposure divided by exposure in the circulation. `C[C@H](Nc1ccc(C#N)n(C)c1=O)c1cc2cc(Cl)ccc2[nH]c1=O` [OLUTASIDENIB]: the Kp in “in vivo [1]” was 0.24; in “in vivo [2]”, 0.38.
